Data taken from publication PMC11324666, “Two novel in vitro assays to screen chemicals for their capacity to inhibit thyroid hormone transmembrane transporter proteins OATP1C1 and OAT4” (Archives of Toxicology, 2024).

Test system: MDCK-OAT4 cells
Assay: CellTiter-Glo luminescent cell viability assay in MDCK-OAT4 cells
Details: concentration that inhibits cell viability by 10%, 20 min exposure

“β-Estradiol-3-sulfate [ß-Estrone-3-sulfate]” was tested. Which “Cytotoxicity IC10” value did it give?
The value was > 10 µM.
